Assays:
CYP3A4 = CYP3A4 (Homo sapiens, UniProt P08684); experiment: Inhibition of CYP3A4 at 3 uM; assay type: ADME
CYP3A4 (Homo sapiens) [1] = experiment: Inhibition of CYP3A4 at 3 uM
CYP3A4 (Homo sapiens) [2] = experiment: Inhibition of CYP3A4 at 3 uM; remark: listed apart in the source
CYP3A4 (Homo sapiens) [3] = experiment: Inhibition of CYP3A4 at 3 uM; remark: listed apart in the source
[4] = Ratio of EC50 for antiproliferation of human A549 cells to IC50 for inhibition of PDK1-mediated AKT1 phosphorylation at T308 in human A549 cells
[5] = Ratio of EC50 for antiproliferation of human H460 cells to IC50 for inhibition of PDK1-mediated AKT1 phosphorylation at T308 in human H460 cells

By UniProt entry, the sequences of proteins in these tests, tags left out.
UniProt P08684, whole entry: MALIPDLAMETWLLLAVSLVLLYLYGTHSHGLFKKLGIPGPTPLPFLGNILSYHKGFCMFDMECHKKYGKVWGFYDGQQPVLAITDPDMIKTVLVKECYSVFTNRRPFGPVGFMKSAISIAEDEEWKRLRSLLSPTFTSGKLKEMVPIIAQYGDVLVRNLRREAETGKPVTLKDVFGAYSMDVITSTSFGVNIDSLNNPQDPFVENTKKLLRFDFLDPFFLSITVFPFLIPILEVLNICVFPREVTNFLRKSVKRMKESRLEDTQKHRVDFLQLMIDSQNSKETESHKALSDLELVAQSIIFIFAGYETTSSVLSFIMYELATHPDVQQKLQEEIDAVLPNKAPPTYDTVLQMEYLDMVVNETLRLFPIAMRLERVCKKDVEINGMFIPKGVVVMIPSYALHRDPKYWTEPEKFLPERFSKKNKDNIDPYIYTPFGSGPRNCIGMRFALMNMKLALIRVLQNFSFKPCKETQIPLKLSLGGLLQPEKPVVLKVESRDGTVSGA

Row | SMILES | inhibition at 3 µM (CYP3A4) | inhibition at 3 µM (CYP3A4 (Homo sapiens) [1]) | inhibition at 3 µM (CYP3A4 (Homo sapiens) [2]) | inhibition at 3 µM (CYP3A4 (Homo sapiens) [3]) | Ratio [4] | Ratio [5]
1 | CC(C)n1cc(C(=O)c2cncc(N[C@@H]3CCC[C@@H]3c3ccc(F)cc3)n2)c2c(N)ncnc21 | 85% | 85% | 85% | 85% | – | –
2 | CC(C)n1cc(C(=O)c2cncc(N[C@@H]3CCO[C@@H]3c3ccc(F)cc3)n2)c2c(N)ncnc21 | 23% | 23% | 23% | 23% | – | –
3 | CC(C)n1cc(C(=O)c2cncc(N[C@@H]3CCN[C@@H]3c3ccc(F)cc3)n2)c2c(N)ncnc21 | 27% | 27% | 27% | 27% | – | –
4 | CC(C)n1cc(C(=O)c2cncc(N[C@@H]3CCN(C=O)[C@@H]3c3ccc(F)cc3)n2)c2c(N)ncnc21 | 38% | 38% | 38% | 38% | 36 | 6
5 | CC(=O)N1CC[C@@H](Nc2cncc(C(=O)c3cn(C(C)C)c4ncnc(N)c34)n2)[C@H]1c1ccc(F)cc1 | 37% | 37% | 37% | 37% | 28 | 12
6 | CC(=O)N1CC[C@@H](Nc2cncc(C(=O)c3cn(C(C)C)c4ncnc(N)c34)n2)[C@H]1c1ccccc1 | 54% | 54% | 54% | 54% | 17 | 5

Source: ChEMBL document CHEMBL1938337, “Discovery of novel, potent, and selective inhibitors of 3-phosphoinositide-dependent kinase (PDK1)” (J Med Chem, 2011)
